# Literature values in article PMC9997069 (Molecular Pharmaceutics, 2023).
# Protein sequences, listed by entry. Tags and fused reporters are not part of them. Residues count along the entry.
# UniProt P02768, 25-609: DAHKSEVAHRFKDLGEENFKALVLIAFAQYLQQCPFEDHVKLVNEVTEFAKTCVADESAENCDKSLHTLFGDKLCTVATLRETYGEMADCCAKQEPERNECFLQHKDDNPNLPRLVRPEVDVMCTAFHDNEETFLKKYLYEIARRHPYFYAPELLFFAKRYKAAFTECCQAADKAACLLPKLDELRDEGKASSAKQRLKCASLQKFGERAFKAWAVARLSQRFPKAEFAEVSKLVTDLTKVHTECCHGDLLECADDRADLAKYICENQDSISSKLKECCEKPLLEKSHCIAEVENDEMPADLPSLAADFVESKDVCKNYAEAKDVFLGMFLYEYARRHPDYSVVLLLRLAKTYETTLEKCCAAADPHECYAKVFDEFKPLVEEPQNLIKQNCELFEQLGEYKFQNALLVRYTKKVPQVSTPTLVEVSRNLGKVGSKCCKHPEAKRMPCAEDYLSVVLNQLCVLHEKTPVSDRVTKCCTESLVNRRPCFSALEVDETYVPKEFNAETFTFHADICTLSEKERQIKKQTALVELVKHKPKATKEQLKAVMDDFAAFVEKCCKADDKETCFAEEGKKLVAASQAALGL
# Molecular target: T1, HSA (Homo sapiens, UniProt P02768)
# T1 construct: purchased Sigma-Aldrich
# Details: 308 K; cited from earlier work
smiles,measurement,value
CNC(=O)c1ccccc1Sc1ccc2c(/C=C/c3ccccn3)n[nH]c2c1 [axitinib],binding constant to HSA,9.7 × 10^4 M^–1
